Like-named read-outs stand apart in the source and are kept apart here.

Where [1] appears, read: 0.16%Sn, Blocked HDI + Acrylic Polyol + MIBK + MAK.
[2] abbreviates: 0.20 %Sn, Blocked HDI + Acrylic polyol + MIBK + MAK.

Consider “Dibutyl Di Octylmaleate Stannox n=6 [Example 3]”, for which, under setting [1], the “COMMENTS (solubility of catalyst)” value is given as “partly soluble after heat”.
For “Dibutyl Diacetoxy Stannox n=3 [Example 1]”, under setting [1], the “COMMENTS (solubility of catalyst)” value is recorded as “soluble on heating” and the solubility result was “partly soluble on heating”.
As for “Dibutyl Diacetoxy Stannox n=6 [Example 2]”, under setting [1], the “COMMENTS (solubility of catalyst)” value is on record as “partly soluble after heat” and the solubility result is recorded as “insoluble”.
In the case of “Dibutyl Diformyloxy Stannox (n=3) [Example 4]”, the solubility entry under setting [2] is recorded as “soluble”.
As to “Dibutyl Diformyloxy Stannox (n=6) [Example 5]”, the solubility entry under setting [2] is given as “partly soluble on heating”.
Turning to “Dibutyl Diformyloxy Stannox (n=14) [Example 6]”, the solubility result under setting [2] is recorded as “sparingly soluble on htg to 70C”.

The values above are taken from patent EP0810245A1, “Catalyst for low temperature cure of blocked isocyanates” (ELF ATOCHEM NORTH AMERICA, INC., priority 1996, dated 1997).
